Test results reported in patent US4871774A, “Medical treatment” (The Boots Company PLC, priority 1987, dated 1989).

Test system: dopamine reuptake; depletion of brain dopamine
Experiment: In vivo inhibition of dopamine reuptake (prevention of α-methyl-m-tyrosine-induced depletion of brain dopamine)
Set-up: species or system rat (Sprague-Dawley)
Details: Rattus norvegicus, po, 4 h, read-out: ED50 (dose to prevent depletion of brain dopamine by 50%)
From the text: (2) In vivo inhibition of dopamine reuptake
An in vivo test for dopamine reuptake inhibition relies on the fact that such reuptake inhibitors can prevent the entry of dopamine-depleting agents into neurons. Depleting agents interfere with the neuronal storage mechanism for dopamine so dopamine leaks into the cytoplasm where it is metabolised by monoamine oxidase. Depleting agents therefore induce a large reduction in brain dopamine levels which can be measured experimentally. Prior treatment with a dopamine reuptake inhibitor reduces the depletion of dopamine levels caused by subsequent administration of a depleting agent such as α-methyl-m-tyrosine.
Male Sprague-Dawley rats (180-220 g: Charles River) were randomly assigned to various treatment groups. […]
Brain samples were thawed and homogenised in 4 volumes of 0.4M perchloric acid containing sodium metabisulphite (0.4 mM) and the internal standard 3,4-dihydroxybenzylamine (0.8 μM). […] Supernatants were removed and their dopamine concentration determined using an HPLC (high pressure liquid chromatography) system with fluorimetric detection.
The percentage prevention (P) of depletion of brain dopamine levels by test compounds is calculated from the formula [formula] […]

`CC(C)CC(N(C)C)C1(c2ccc(Cl)cc2)CCC1.Cl.O` (stereo not shown) [N,N-dimethyl-1-[1-(4-chlorophenyl)cyclobutyl]-3-methylbutylamine hydrochloride monohydrate] was tested. Which ED50 did it give?
Its ED50 is 44 mg/kg.
